Molecular target: T1, collagen type I from rat tail collagen (Corning) (rat, UniProt P02454 152-1207; P02466 86-1125)
T1 construct: collagen type I alpha 1 chain, rat tail; collagen type I alpha 2 chain, rat tail; Positive control of the ELISA; also called collagen I; source: bought: Corning (rat tail); copies: 2 + 1
Assay: ELISA; collagen model peptides or collagen I coated on Nunc MaxiSorp (500 ng/well), blocked with 1% BSA in TBS; soluble HSP47 in a 1:4 dilution series from 8 or 10 μM; detected by anti-His-HRP; triplicates, four-parameter logistic fit
Settings: both partners purified

By UniProt entry, the sequences of proteins in these tests, tags left out. Residues count along the entry.
UniProt P02454, 152-1207, chain 1 of 2: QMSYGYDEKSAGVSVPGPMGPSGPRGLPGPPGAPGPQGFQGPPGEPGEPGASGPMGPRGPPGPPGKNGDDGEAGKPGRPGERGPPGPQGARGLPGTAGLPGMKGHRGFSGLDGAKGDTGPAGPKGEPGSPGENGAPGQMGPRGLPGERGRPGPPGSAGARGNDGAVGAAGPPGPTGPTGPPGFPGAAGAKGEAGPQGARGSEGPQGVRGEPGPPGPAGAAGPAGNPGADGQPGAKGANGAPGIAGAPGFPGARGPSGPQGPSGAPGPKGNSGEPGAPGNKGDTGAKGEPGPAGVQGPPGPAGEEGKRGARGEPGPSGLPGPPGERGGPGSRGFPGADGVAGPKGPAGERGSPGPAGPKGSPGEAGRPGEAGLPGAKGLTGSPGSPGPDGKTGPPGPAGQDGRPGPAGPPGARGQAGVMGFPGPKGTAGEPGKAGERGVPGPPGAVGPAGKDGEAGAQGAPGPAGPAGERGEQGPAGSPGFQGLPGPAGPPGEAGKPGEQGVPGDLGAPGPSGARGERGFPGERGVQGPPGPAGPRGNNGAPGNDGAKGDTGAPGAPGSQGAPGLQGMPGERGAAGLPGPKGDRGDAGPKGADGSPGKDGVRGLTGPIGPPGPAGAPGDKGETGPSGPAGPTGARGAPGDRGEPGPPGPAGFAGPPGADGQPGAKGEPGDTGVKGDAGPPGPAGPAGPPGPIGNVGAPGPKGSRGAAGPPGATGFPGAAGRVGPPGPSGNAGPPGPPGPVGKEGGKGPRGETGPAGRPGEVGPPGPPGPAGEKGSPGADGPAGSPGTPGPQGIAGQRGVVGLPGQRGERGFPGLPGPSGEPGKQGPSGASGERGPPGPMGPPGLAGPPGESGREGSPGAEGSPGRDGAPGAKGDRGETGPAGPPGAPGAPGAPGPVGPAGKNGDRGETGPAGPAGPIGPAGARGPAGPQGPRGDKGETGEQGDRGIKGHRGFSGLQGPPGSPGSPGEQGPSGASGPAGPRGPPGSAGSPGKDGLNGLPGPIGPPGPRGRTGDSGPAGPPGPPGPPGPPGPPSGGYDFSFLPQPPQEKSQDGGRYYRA
collagen type I from rat tail collagen (Corning), UniProt P02466, 86-1125, chain 2 of 2: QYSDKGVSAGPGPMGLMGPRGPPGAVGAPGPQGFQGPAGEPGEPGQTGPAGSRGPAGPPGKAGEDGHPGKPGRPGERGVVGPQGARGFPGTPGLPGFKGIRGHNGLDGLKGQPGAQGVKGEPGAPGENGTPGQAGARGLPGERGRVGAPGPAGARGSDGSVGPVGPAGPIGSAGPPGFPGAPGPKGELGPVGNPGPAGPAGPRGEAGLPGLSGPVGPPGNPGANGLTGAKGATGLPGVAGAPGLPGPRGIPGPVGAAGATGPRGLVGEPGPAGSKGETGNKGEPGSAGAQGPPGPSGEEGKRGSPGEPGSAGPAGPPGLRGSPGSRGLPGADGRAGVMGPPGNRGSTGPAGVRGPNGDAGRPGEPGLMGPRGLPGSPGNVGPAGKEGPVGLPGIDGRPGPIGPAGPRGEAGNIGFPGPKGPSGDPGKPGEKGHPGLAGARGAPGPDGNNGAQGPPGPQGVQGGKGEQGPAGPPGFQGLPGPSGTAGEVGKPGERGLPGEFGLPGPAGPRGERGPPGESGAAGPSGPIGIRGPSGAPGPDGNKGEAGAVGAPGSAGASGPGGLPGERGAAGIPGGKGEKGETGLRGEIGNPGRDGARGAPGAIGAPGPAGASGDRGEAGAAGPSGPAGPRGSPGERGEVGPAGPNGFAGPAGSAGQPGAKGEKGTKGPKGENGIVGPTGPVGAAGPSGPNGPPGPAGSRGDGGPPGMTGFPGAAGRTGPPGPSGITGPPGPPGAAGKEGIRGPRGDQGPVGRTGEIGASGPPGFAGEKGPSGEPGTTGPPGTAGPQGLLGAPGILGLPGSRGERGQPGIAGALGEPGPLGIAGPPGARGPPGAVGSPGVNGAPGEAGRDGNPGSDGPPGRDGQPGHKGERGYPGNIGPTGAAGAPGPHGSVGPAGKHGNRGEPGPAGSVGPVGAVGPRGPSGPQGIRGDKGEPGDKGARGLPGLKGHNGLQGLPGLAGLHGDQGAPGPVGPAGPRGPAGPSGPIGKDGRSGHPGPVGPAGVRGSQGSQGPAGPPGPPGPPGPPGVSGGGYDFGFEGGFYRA

Kd: 116 ± 7.6 nM
B1: HSP47 (heat shock protein 47), Canis lupus, residues 36-418 with C-terminal hexahistidine tag (natural protein, UniProt C7C419 36-418, looked up)
chain: LSPKAATLAERSAGLAFSLYQAMAKDQAVENILLSPVVVASSLGLVSLGGKATTASQAKAVLSAEQLRDEEVHAGLGELLRSLSNSTARNVTWKLGSRLYGPSSVSFAEDFVRSSKQHYNCEHSKINFRDKRSALQSINEWAAQTTDGKLPEVTKDVERTDGALLVNAMFFKPHWDEKFHHKMVDNRGFMVTRSYTVGVTMMHRTGLYNYYDDEKEKLQIVEMPLAHKLSSLIILMPHHVEPLERLEKLLTKEQLKIWMGKMQKKAVAISLPKGVVEVTHDLQKHLAGLGLTEAIDKNKADLSRMSGKKDLYLASVFHATAFEWDTEGNPFDQDIYGREELRSPKLFYADHPFIFLVRDTQSGSLLFIGRLVRPKGDKMRDEL
notes: HSP47 (serpin H1), Canis lupus, codon-optimized construct in pET22-(b), residues 36LSP...RDEL418; Construct Mr 44,099 Da; Conjugated with 5 nm colloidal gold for the electron microscopy; also called wild-type HSP47; source: E. coli BL21 (DE)3, purified (Ni-NTA, ammonium sulfate precipitation of contaminants, Superdex 200); not shown: His6, C-terminal, kept

Source: PMC8626583, “Collagen’s primary structure determines collagen:HSP47 complex stoichiometry” (The Journal of Biological Chemistry, 2021)
